Test results from patent US8816122B2 (The Board of Trustees of the Leland Stanford Junior …, priority 2009, dated 2014).

Test system: CD69
Assay: CD69 surface marker induction in primary quiescent CD4+ T cells
Type: cell-based

CCC/C=C/C=C/C(=O)O[C@H]1/C(=C/C(=O)OC)C[C@H]2C[C@H]([C@@H](C)O)OC(=O)C[C@H](O)C[C@@H]3C[C@H](OC(C)=O)C(C)(C)[C@](O)(C[C@@H]4C/C(=C/C(=O)OC)C[C@H](/C=C/C(C)(C)[C@]1(O)O2)O4)O3 [Bryostatin 1, reference compound]
Minimum Concentration for CD69 Induction: 1 nM
